Like-named read-outs stand apart in the source and are kept apart here.
Key:
MetAP2 [1] = target: T1, MetAP2 (Homo sapiens, UniProt P50579); conditions: HUVECs, 10 nM, 2 hours exposure, washed, 72-hour culture (FIG. 6C, 7B)
MetAP2 [2] = target: T1, MetAP2; conditions: HUVECs; 10 nM, 2 hours exposure, washed, 72-hour culture (FIG. 6D)
MetAP2 [3] = target: T1, MetAP2; conditions: HepG2 cells; 2 hours exposure, washed out (FIG. 7A)
HUVEC = experiment: Inhibition of HUVEC proliferation as a function of drug exposure time (washout assay)
thrombomodulin (TM) = tested on: thrombomodulin (TM)
Protocol: For LC-MS/MS sample preparation, cell culture media was removed, cells were washed with 10 mL of Dulbecco's phosphate-buffered saline (DPBS), and 500 μL of T-PER lysis buffer was added. Cell lysates were stored at −80° C. […] For the 4- and 8-hour incubations, cells were maintained by standard culture for the remainder of the 72-hour incubation period. Cell cycle protein levels were assessed using enzyme-linked immunosorbent assays.
HUVEC cells were exposed to compounds at concentrations of 1 nM, 3 nM, 10 nM, and 20 nM. […] The protein assays performed included measurements of total p21, thrombomodulin, total p53, PAI-1, and von Willibrand factor (vWF). All values obtained were normalized against protein concentration.

The chains behind the UniProt entries cited, without tags or fusion partners. Where a name states a change or a piece, a line headed by the entry shows the natural chain unless it says otherwise.
UniProt P50579: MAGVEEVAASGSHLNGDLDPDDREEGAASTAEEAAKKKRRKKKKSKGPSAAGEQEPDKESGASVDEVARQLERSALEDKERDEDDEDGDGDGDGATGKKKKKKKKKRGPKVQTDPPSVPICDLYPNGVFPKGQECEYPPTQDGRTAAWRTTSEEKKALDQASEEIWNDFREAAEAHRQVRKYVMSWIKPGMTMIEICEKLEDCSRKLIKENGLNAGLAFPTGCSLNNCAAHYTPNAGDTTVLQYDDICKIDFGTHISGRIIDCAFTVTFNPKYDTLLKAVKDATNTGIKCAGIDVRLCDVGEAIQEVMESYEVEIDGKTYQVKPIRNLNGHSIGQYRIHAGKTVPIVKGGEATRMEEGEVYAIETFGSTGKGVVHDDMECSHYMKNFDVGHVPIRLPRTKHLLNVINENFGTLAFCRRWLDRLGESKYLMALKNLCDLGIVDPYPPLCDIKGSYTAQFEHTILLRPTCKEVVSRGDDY

HUVECs = experiment: Cell-associated drug concentration in HUVECs (LC-MS/MS); format: in vitro ADME, human; conditions: 10, 30, or 100 nM for 1 hour, then washed (FIG. 8A)
Protocol: For LC-MS/MS experiments, cells were plated at 3×10^4 cells/mL on tissue culture-treated T175 flasks at 35 mL/flask in triplicate and allowed to equilibrate overnight in a CO2 incubator. On the day of the experiment, cell culture medium was removed, and fresh medium was added, along with drug or vehicle. Target compounds and beloranib were diluted in DMSO to yield stock concentrations of 10 μM. Subsequent dilutions were made in EGM-2 culture medium to yield a final DMSO concentration of 0.1% for cell incubations.
Cell lysates were stored at −80° C.
Thus, similar and maximal binding to MetAP2 protein occurred with the 10 nM concentration of both Compound A and beloranib and subsequent MetAP2 target engagement studies employed a 10 nM concentration of both drugs.

SMILES	MetAP2 target engagement (drug bound to active site) over 72 hours (MetAP2 [1])	MetAP2 target engagement (drug bound to active site) over 72 hours (MetAP2 [1]; listed as compound A)	THX 1-6 concentrations over 72 hours (MetAP2 [2])	proportion of MetAP2 that contained drug in the active site over 72 hours (MetAP2 [3])	% inhibition 6XIC90 4 h exposure (HUVEC; 6XIC90, 4 h exposure)	% inhibition 6XIC90 24 h exposure (HUVEC; 6XIC90, 24 h exposure)	% inhibition 20XIC90 4 h exposure (HUVEC; 20XIC90, 4 h exposure)	% inhibition 20XIC90 24 h exposure (HUVEC; 20XIC90, 24 h exposure)	TM protein level (thrombomodulin (TM); 72 hours of incubation, all concentrations (1, 3, 10, 20 nM))	TM protein level (thrombomodulin (TM); short 4- or 8-hour incubations, 10 and 20 nM)	cell-associated concentration, fold higher than Compound A (HUVECs)
CO[C@@H]1[C@H](OC(=O)N2CC(CCN3CCOCC3)C2)CC[C@]2(CO2)[C@H]1[C@@]1(C)O[C@@H]1CC=C(C)C [Compound A]	target engagement declined	target engagement decreased over the 72-hour time period	consistently low	declined similarly over the 72 hours							
CO[C@@H]1[C@H](OC(=O)/C=C/c2ccc(OCCN(C)C)cc2)CC[C@]2(CO2)[C@H]1[C@@]1(C)O[C@@H]1CC=C(C)C [Beloranib, beloranib]					45%	67%	64%	72%	reduced TM levels	reduced TM protein levels	more than 10 fold

Source: US20200003759A1, “METHODS FOR IDENTIFYING METAP-2 MODULATORS” (Zafgen, Inc., priority 2017, published 2020)
